## Binding of CDR-mutated scFvs to a peptide of the spike HR2 region

Values reported by Li et al. 2023, doi:10.1038/s41467-023-39022-2 (FLAb copy).

The target is the same throughout: PDVDLGDISGINAS, from the HR2 region of SARS-CoV-2 spike.

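Designed CDR sequences, proposed from the first random library and measured here. Several design methods are mixed in this list. The assay is AlphaSeq: two haploid yeast populations carry antibody and antigen on their surface. After mating in shaken culture at 30 °C for 16 h, diploids were selected and their barcode pairs sequenced. Scores were corrected for input abundance and mapped to Kd with protein pairs of known affinity run in the same pool. Mating was done six times.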

Each scFv is VH, the linker GGGGSGGGGSGGGGS, VL, as in the parent Ab-14, and differs from it in the CDRs of the light chain only.
VH: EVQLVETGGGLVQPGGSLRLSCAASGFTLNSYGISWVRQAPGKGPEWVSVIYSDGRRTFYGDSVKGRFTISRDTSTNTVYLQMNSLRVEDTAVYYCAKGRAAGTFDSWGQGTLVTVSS
VL: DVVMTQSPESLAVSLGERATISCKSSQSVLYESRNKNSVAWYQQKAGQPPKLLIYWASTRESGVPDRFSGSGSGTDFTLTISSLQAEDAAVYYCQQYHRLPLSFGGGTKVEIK

Each variant is given by its three light chain CDRs, as the data file delimits them; those of the parent are KSSQSVLYESRNKNSVA, WASTRES, QQYHRLPLS. Each Kd is an estimate from the mating assay, the geometric mean of the replicates in which the pair was seen; lower is stronger. An entry "nd" has no value in the source: the pair was not observed among the diploids in any replicate. This suggests poor binding but is not conclusive. Order: sorted from the lowest average up, undetected variants last. Background: pairings of all light chain designs with three empty control strains gave a value in 4% of cases (median 430 nM, 5th percentile 38 nM). Values in that range, when seen in few replicates, are hard to tell from nonspecific mating. Values of this round are not directly comparable with the first-round values of the same sequences. The authors averaged sequences with at least three values out of six and counted those with two or fewer as poor binders. The parent sequence was in this pool as ten entries: three were never detected, three once, and four in most replicates, with averages from 2.2 nM to 240 nM.

For KLSQSMLYESRNVNNVA / QASTRES / QQYHRLPLM, the assay gave 270 pM (6 of 6 replicates).
For KFSQSWLYESRNKNSVA / EASQRES / QQYHRLPLS, the assay gave 280 pM (6 of 6 replicates).
For KLSQSVLYESRNKQSVA / GASTRES / QQYHRLPLS, the assay gave 330 pM (6 of 6 replicates).
For KLSQQVLYESRNKNSVA / NASTRED / QQYHRLPLS, the assay gave 660 pM (6 of 6 replicates).
For TLTQVQGMEEHNKDNVA / DLSTRGS / QQYHRLPLS, the assay gave 670 pM (6 of 6 replicates).
For KVSSAFLYEDRNKNSVA / QASQRES / QQYHRLPLS, the assay gave 750 pM (6 of 6 replicates).
For KLSPSVMYWMRNKNSVA / NASTRMS / QQYHRLPLS, the assay gave 790 pM (6 of 6 replicates).
For KSLISQEYESRNKNSVA / HASTRED / QQYHRLPLS, the assay gave 860 pM (6 of 6 replicates).
For KLMQSHLYESRNKNSVA / EASTRES / QQYHRLPLS, the assay gave 1.0 nM (6 of 6 replicates).
For KVSQSWLYESRNKNSVA / NASTRLS / QQYHRLPLS, the assay gave 1.1 nM (6 of 6 replicates).
For KYQELEPYESRNKNSVA / NASTREE / QQYHRLPLS, the assay gave 1.2 nM (6 of 6 replicates).
For KLSQVTHSESRNKNSIA / EMVTREP / QQYDRLPLS, the assay gave 1.3 nM (6 of 6 replicates).
For KLDQSELYQSRNKQSVA / NASERES / QQYHRLPLS, the assay gave 1.4 nM (6 of 6 replicates).
For KSSPSVPYESRNKNSVA / NASTREE / QQYHRLPLS, the assay gave 1.4 nM (6 of 6 replicates).
For KFSQSDLYESRNKNSVA / HASTRES / QQYHRLPLS, the assay gave 1.5 nM (6 of 6 replicates).
For KSQQSVLYESRNKNNVA / HASTRES / QQYHRLPLS, the assay gave 1.7 nM (6 of 6 replicates).
For KVSCSVMLESRNWNAVA / EASQRES / QDYHRLPLS, the assay gave 2.0 nM (6 of 6 replicates).
For KNSQSVLYESRFMNSVA / DASTRES / QQYHRLPLS, the assay gave 2.2 nM (6 of 6 replicates).
For KSSESVGYESMNKNSVA / EASTRNS / QQYHRLPLS, the assay gave 4.2 nM (6 of 6 replicates).
For NVRLNEGEIAMHMYAIA / GVDLRAD / QQYSRLPLH, the assay gave 5.9 nM (4 of 6 replicates).
For MMSQMFEGLSTQKNPVA / QVSTREE / QQYHRLPLS, the assay gave 7.1 nM (6 of 6 replicates).
For HMSMLTLQGLRHRNSVA / QMTTREN / QQYDHLPLS, the assay gave 10 nM (6 of 6 replicates).
For MLSQMTGLGMKAKNSVA / QANMRFD / QQYHRLPLL, the assay gave 11 nM (6 of 6 replicates).
For SLDSYVGYDTQNKKNIA / EETRVDR / QQYAHLPLM, the assay gave 12 nM (6 of 6 replicates).
For MLSQMWAIGMKVSNSVA / QANMRFN / QQYDRLPLM, the assay gave 20 nM (3 of 6 replicates).
For KSSQSVLYESRNKQNVA / WGSTRES / QQYHRLPLS, the assay gave 20 nM (6 of 6 replicates).
For KLSVSWLFESIEKNSVA / ERSTRED / QDYNRLPLS, the assay gave 25 nM (6 of 6 replicates).
For MLGDVGFGLTRKEDSVA / DNDTRES / QQYDRLPLS, the assay gave 28 nM (6 of 6 replicates).
For MISQVMNSLTHTGNNVA / DLQEREH / QQYFRLPLS, the assay gave 29 nM (4 of 6 replicates).
For KSSQPVLYESTNKNSVA / WASTRES / QQYHRLPLS, the assay gave 48 nM (6 of 6 replicates).
For MIQYGQERDSEHYNSIA / NDHEVSI / QQYYRLPLV, the assay gave 54 nM (6 of 6 replicates).
For KSSQSVLYESRGKNSVA / AATTRES / QQKHRLPLS, the assay gave 61 nM (6 of 6 replicates).
For KFDFQMPELNYQDNSVA / GMTVSIE / QHYFRLPLT, the assay gave 150 nM (1 of 6 replicates).
For KISQAELYESRNKNSVA / WASTRVS / QQYHRAPLS, the assay gave 410 nM (1 of 6 replicates).
For KSSQSVLYESSNKNSVA / RASTRES / QSYHRLPCS, the assay gave 2.4 µM (1 of 6 replicates).
For KSSQSVLYESRNKNSVA / WASTRES / QQYHRLPLN, the assay gave nd (0 of 6 replicates).
For SIGLATMLEEYARNSVA / NNSTREE / QQYDRLPLS, the assay gave nd (0 of 6 replicates).
For TLVQSVMGGSRTYNSVA / NAETRYD / QHYHRLPLS, the assay gave nd (0 of 6 replicates).
For IVSQLMIWGMHVKNSIA / EAQTRVN / QQYDRLPLF, the assay gave nd (0 of 6 replicates).
For KQSQSVLGESRNKNSVA / MASTRES / QQYHRLPLS, the assay gave nd (0 of 6 replicates).
For MLSQMWALGMKVSNSVA / QATMRFN / QQYYRLPLI, the assay gave nd (0 of 6 replicates).

Excerpt, the first 6 entries:

{"CDR-L1": "KLSQSMLYESRNVNNVA", "CDR-L2": "QASTRES", "CDR-L3": "QQYHRLPLM", "Kd (apparent)": "270 pM", "replicates with signal": "6 of 6"}
{"CDR-L1": "KFSQSWLYESRNKNSVA", "CDR-L2": "EASQRES", "CDR-L3": "QQYHRLPLS", "Kd (apparent)": "280 pM", "replicates with signal": "6 of 6"}
{"CDR-L1": "KLSQSVLYESRNKQSVA", "CDR-L2": "GASTRES", "CDR-L3": "QQYHRLPLS", "Kd (apparent)": "330 pM", "replicates with signal": "6 of 6"}
{"CDR-L1": "KLSQQVLYESRNKNSVA", "CDR-L2": "NASTRED", "CDR-L3": "QQYHRLPLS", "Kd (apparent)": "660 pM", "replicates with signal": "6 of 6"}
{"CDR-L1": "TLTQVQGMEEHNKDNVA", "CDR-L2": "DLSTRGS", "CDR-L3": "QQYHRLPLS", "Kd (apparent)": "670 pM", "replicates with signal": "6 of 6"}
{"CDR-L1": "KVSSAFLYEDRNKNSVA", "CDR-L2": "QASQRES", "CDR-L3": "QQYHRLPLS", "Kd (apparent)": "750 pM", "replicates with signal": "6 of 6"}